Patent publication US6355616B1, “Derivative compounds derived from or based on bactericidal/permeability-increasing protein” (priority 1999, dated 2002)

Columns and labels:
[1] = system: Candida albicans SLU-1; assay: Radial diffusion assay; format: cell-based; settings: 30 mm^2 area of growth inhibition, calculated by PROBIT analysis
Protocol: In the radial diffusion assay procedures, the CA-1 cultures and derivatized peptide solutions were prepared as in the broth microdilution assay procedure described above, i.e., CA-1 was grown to exponential phase in SDB. Ten (10) mL of molten underlayer agarose comprising 3% Sabouraud Dextrose broth, 1% agarose (Pharmacia, Piscataway, N.J.), 0.02% Tween 20, and 10 mM sodium phosphate at pH 7.4, was added to polystyrene tubes and maintained in a 56° C. water bath until the addition of yeast. Tubes were cooled to approximately 45° C., yeast were added to give a final concentration of 1×10^6 CFU/mL, and the tubes were mixed again by inverting. The contents were poured into leveled, square petri dishes and distributed evenly. […]
Clear zones of growth inhibition around each well were measured with calipers. The actual area of growth inhibition (mm^2) was calculated by subtracting the area of the well. Table II below sets out the results of the radial diffusion assays for a series of tested peptide-based constructs in terms of the number of picomoles (pmol) of compound required to establish a 30 mm^2 area of growth inhibition of Candida albicans SLU-1 calculated by PROBIT analysis (e.g., calculated from regression of the linear portion of log-concentration dose-response curve, log pmol/well vs. net area of inhibition).

[2] = system: Candida albicans designated CA-1, Strain SLU-1; format: cell-based; settings: for Broth Microdilution (MIC values in μg/mL C. albicans SLU1): designated CA-1, Strain SLU-1, 24 h
Protocol: In each broth microdilution assay screening procedure, a colony of Candida albicans designated CA-1, Strain SLU-1 that was received from the laboratories of G. Matuschak and A. Lechner, St. Louis University Hospital, St. Louis, Mo., where the strain was maintained, was inoculated into a tube containing 5 mL Sabouraud Dextrose broth (2% dextrose, 1% neopeptone) and incubated at 37° C. with shaking. The overnight culture was diluted 1:50 into 5 ml of fresh broth and incubated for 3 hours at 37° C. to exponential phase growth. Organisms were pelleted by centrifugation in a Beckman J-6M centrifuge for 5 minutes at 3000 rpm (1500×g) and the pellets were resuspended in 5 mL phosphate buffered saline (PBS) and the optical density (OD) at 570 nm was determined. On the basis of the determination that one OD unit equals 3×10^7 colony forming units/mL (CFU/mL), yeast cells were diluted to 5×10^3 CFU/mL in Sabouraud Dextrose broth (SBD).
Derivatized peptide sequences based on Domain III of BPI to be screened which were originally constituted in Dulbecco's-PBS, were two-fold serially diluted in SDB starting from a concentration of 128 μg/mL. Equal volumes (100 μL) of yeast suspension as prepared above and derivatized peptide solution were added to wells of a 96-well sterile, flat bottom, non-pyrogenic tissue culture microtiter plate (Costar, Cambridge, Mass.) to reach a final volume of 200 μL/well. The plate was incubated on a shaker at 37° C. for 24 hours. All assays were performed in triplicate. Following the incubation period, plates were read in an ELISA plate reader at 595 nm wavelength to determine the minimum inhibitory concentration (MIC), i.e., the lowest concentration required to reduce the optical density at 595 nm to below 0.1 OD.

[3] = system: MDCK and CACO-2 cells; format: in vitro ADME
Protocol: For these experiments, peptide-based constructs are screened for potential oral absorption in in vitro screening assays using MDCK and/or CACO-2 cells. Briefly, cultured monolayers of Madin-Derby canine kidney epithelial (MDCK) cells (ATCC Accession No. CCL-34) and/or CACO-2 (Human colon carcinoma) cells [Audus, K. L., et al. Phar. Res., 7:435-451 (1990) are grown upon collagen-coated, permeable-filter supports (Becton Dickinson, Mountain View, Calif.). The cells are grown to confluency and allowed to differentiate (e.g., about 3 days for MDCK cells or about 21 days for CACO-2 cells). The integrity of the monolayers is determined by measuring the transepithelial resistance. […] The transepithelial transport of the construct is measured by quantitative HPLC analysis of the incubation media on the basolateral side of the cells (forward transport). […] In addition, the efflux of the construct is measured by quantitative HLPC analysis of the incubation media on the apical side of the cells. […]
Following the days post seeding, the cells are ready for transport experiments. […]
Forward transport is calculated as the percentage of peptide-based construct in the basolateral chamber (determined by the area under the HPLC peak) to the initial concentration of the apical solution (initial donor concentration of ˜100 μg/mL). […]

[4] = system: Staphylococcus aureus

| SMILES | Radial Diffusion (pmol to achieve 30 mm^2 zone C. albicans SLU1) [1] [pmol] | Broth Microdilution (MIC values in μg/mL C. albicans SLU1) [2] [µg/mL] | MIC range against Candida albicans ([2]; designated CA-1, Strain SLU-1) [µg/mL] | mobility in epithelial cell screening assays [3] [%] | MIC range against Staphylococcus aureus [4] [µg/mL] |
| --- | --- | --- | --- | --- | --- |
| CC[C@@H](C)[C@@H](NC(=O)[C@@H](CC(C)C)NC(=O)[C@@H](Cc1c[nH]c2ccccc12)NC(=O)[C@@H](CCCCN)NC(C)=O)C(=O)N[C@H](CCC(N)=O)C(=O)N[C@H](CC(C)C)C(=O)N[C@H](Cc1ccccc1)C(=O)N[C@H](Cc1c[nH]cn1)C(=O)N[C@H](CCCCN)C(=O)N[C@H](CCCCN)C(N)=O [XMP.366] | 352 | 4 |  |  |  |
| CC[C@@H](C)[C@@H](NC(=O)[C@@H](CC(C)C)NC(=O)[C@@H](Cc1c[nH]c2ccccc12)NC(=O)[C@H](N)CCCCN)C(=O)N[C@H](CCC(N)=O)C(=O)N[C@H](CC(C)C)C(=O)N[C@H](Cc1ccccc1)C(=O)N[C@H](Cc1c[nH]cn1)C(=O)N[C@H](CCCCN)C(=O)N[C@H](CCCCN)C(N)=O [XMP.365] | 285 | 2 | 0.16 to 2 | 0.05 to 0.06 | 4 to 8 |
